Reference: PubChem BioAssay AID799 (SRMLSC, 2007)
Only a part is listed here, and it is no random draw. Some results for these compounds are left out of this collection, so the calls shown say nothing about other tests. Activity calls are given as the source filed them.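 Rule for the calls: active = viability gain under doxorubicin at or above a set limit, the compound median plus 3 SD (cut at about 4.7% in these data); inactive = the rest.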

Assay: H69AR viability gain despite doxorubicin, primary screen, MRP-1 activator project, H69AR cells, CellTiter-Glo (AID 799);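 note: MRP-1 overexpressing cells given doxorubicin 25 µM after compound pretreatment; 18-22 h compound pretreatment then 72 h with doxorubicin before readout; 0% = doxorubicin-only wells and 100% = vehicle-treated cells without doxorubicin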
Conditions: viability rescue, at 10 µM, stronger effect = higher value

Compound	viability increase
CN(C)C1CCCC1OC(=O)C(O)(c1ccccc1)c1ccccc1 (stereo not given)	inactive: -0.14%
CCN1CCCC(OC(=O)C2(O)c3ccccc3C=Cc3ccccc32)C1 (stereo not given)	inactive: -2.16%
CC(C)N1C(=O)CC2(CCN(CCOC(=O)C(O)(c3ccccc3)c3ccccc3)CC2)C1=O	inactive: -1.66%
O=C(OC1CN2CCC1CC2)C(CO)(c1ccccc1)c1ccccc1 (stereo not given)	inactive: -0.24%
CN(C)c1cccc(C(=O)NCC2(N(C)C)CCCCC2)c1	inactive: -2.14%
